Protein sequences, listed by entry. Tags and fused reporters are not part of them. Lines headed by an entry give the natural chain unless they say otherwise; changes in a name come on top.
UniProt P07650: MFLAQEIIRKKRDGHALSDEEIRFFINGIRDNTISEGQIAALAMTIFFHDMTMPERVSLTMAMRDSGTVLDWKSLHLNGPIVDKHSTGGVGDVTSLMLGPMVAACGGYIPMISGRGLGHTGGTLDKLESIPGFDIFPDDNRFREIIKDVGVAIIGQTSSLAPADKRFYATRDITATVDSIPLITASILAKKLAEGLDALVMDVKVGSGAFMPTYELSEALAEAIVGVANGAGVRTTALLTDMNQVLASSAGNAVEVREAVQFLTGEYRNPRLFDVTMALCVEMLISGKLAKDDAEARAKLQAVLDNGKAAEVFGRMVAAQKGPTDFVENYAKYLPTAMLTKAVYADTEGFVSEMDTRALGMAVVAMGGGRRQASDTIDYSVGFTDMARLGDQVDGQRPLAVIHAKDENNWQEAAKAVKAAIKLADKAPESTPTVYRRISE

According to US20170246130A1, “4-HYDROXYBENZOHYDARZIDE-A NEW CLASS OF ANGIOGENIC ENZYME THYMIDINE PHOSPHORYLASE INHIBITORS” (priority 2016, published 2017):

What was measured:
[1] = target: T1, thymidine phosphorylase (E. coli) (Escherichia coli, UniProt P07650); experiment: In-vitro thymidine phosphorylase inhibition assay (spectrophotometric); format: biochemical; details: recombinant E. coli TP, thymidine substrate, pH 7.0, 30° C., 290 nm; read-out: IC50 (μM ± S.E.M.), thymidine phosphorylase inhibition
T1 construct: purchased Sigma Aldrich, USA; host or cells: Escherichia coli
Experimental: Enzyme thymidine phosphorylase (E. coli) and its substrate thymidine were purchased from Sigma Aldrich, USA, and inhibitor 7-deazaxanthine was purchased from Santa Cruze Biotechnology Inc., USA. In vitro studies on thymidine phosphorylase were carried out in 96-well microtiter plate using Spectra Max-340 and Spectra Max-384 spectrophotometers (Molecular Devices, CA, USA). Deionized water used for buffer preparation was collected by Simplicity Water Purification System (Milipore).
Since human TP is not commercially available, we used commercially available recombinant E. coli TP (expressed in Escherichia coli) enzyme. Primary sequence of TP is mostly conserved throughout the evolution as mammalian TP share 39% sequence similarity with TP of E. coli. The mammalian enzyme also shared 65-70% similarity with the active site residues of E. coli TP enzyme (Bronckaers et al., 2009). Assay for thymidine phosphorylase inhibition was performed spectrophotometrically, following method of Bera et al. with some modifications (Bera et al., 2013). […]
The enzyme inhibitory activities were calculated using the following formula: […]
The IC50 of the compounds was calculated using EZ-Fit Enzyme Kinetic Program (Perrella Scientific Inc., Amhrest, U.S.A.).

[2] = target: T1, thymidine phosphorylase (E. coli); experiment: Kinetic (mechanistic) studies on thymidine phosphorylase; format: biochemical; details: thymidine as variable substrate; secondary re-plot, confirmed by Dixon plot; read-out: Ki (μM ± S.E.M.), dissociation constant
Experimental: These studies disclose the mechanism of inhibitor binding to enzyme. Kinetic studies were carried out using thymidine as variable substrate. […] This was deduced from Lineweaver Burk plot. This compound therefore, interacted either with the amino acids of hydrophobic pocket of the enzyme or at allosteric site of the enzyme. […] Uncompetitive inhibitors encountered enzyme only when enzyme-substrate complex has been formed, enzyme-substrate complex formation was proposed to induce a conformational changes in the enzyme which facilitate the binding of inhibitor. Uncompetitive inhibitor causes decrease in both Km and Vmax values of the enzyme (Figure-6). […] Ki values were determined by secondary re-plot, and confirmed by Dixon plot.
Kinetic studies were carried out to find the mechanism of inhibitor action. Inhibitor could bind with enzyme in multiple ways such as in competitive, non-competitive, mixed or uncompetitive way. […] The reactions was then initiated by adding different concentrations (0.1875 mM-1.5 mM) of substrate (thymidine) and the resulting degradation of thymidine was measured continuously at 290 nm for 10 min on a ELISA plate reader. […]
Line-weaver Burk plot was plotted to determine the type of inhibition. […] Ki values were determined by secondary re-plot, and reconfirmed by Dixon plot. The Ki was determined by non-linear regression equation.

Oc1nc(O)c2cc[nH]c2n1 [7-Deazaxanthine, 2,4-Dihydroxypyrrolo[2,3-d]pyrimidine, reference compound]
IC50 [1]: 41 ± 1.63 µM
Ki [2]: 45.66 ± 0.0009 µM
